Assay [1] has as its target T1, human orexin 2 receptor (Homo sapiens (Human), UniProt O43614). Kind of assay: Human orexin 2 receptor Ca2+ mobilization assay (FLIPR, PFSK cells, orexin B 100 nM). It counts as cell-based. As to conditions: modified Cheng-Prusoff correction, read-out: OR 2 Kb.
Assay [2] addresses T1, human orexin 2 receptor. Nature of the assay: Human orexin 2 receptor radioligand binding ([3H]EMPA competition, HEK293 cells). As to conditions: read-out: OR 2 Ki, HEK293 cells expressing human orexin-2 receptor.

Amino acid sequences for entries named in this document (tags omitted).
UniProt O43614, whole entry: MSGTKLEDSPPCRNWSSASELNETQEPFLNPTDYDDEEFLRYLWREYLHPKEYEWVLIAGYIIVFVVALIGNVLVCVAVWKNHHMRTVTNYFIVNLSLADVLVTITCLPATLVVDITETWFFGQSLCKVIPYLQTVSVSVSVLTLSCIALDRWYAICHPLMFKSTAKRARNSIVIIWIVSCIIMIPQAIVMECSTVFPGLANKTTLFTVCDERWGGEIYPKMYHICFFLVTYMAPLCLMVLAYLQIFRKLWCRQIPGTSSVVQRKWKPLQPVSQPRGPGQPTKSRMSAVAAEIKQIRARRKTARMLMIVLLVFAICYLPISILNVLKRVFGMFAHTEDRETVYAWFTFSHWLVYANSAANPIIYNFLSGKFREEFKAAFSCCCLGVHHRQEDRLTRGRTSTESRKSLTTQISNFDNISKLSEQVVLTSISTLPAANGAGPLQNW

For 25 compounds, Kb and Ki results are on record in US9586962B2, “Disubstituted octahydropyrrolo [3,4-C] pyrroles as orexin receptor modulators” (Janssen Pharmaceutica NV, priority 2011, dated 2017).

In general, Ki refers to the equilibrium dissociation constant of an inhibitor or competing ligand from its target.

On to `COc1cc(C)nc(N2CC3CN(C(=O)c4c(F)cccc4-n4nccn4)CC3C2)n1` (centres unmarked) [Example 296, 2-{[2-Fluoro-6-(2H-1,2,3-triazol-2-yl)phenyl]carbonyl}-5-(4-methoxy-6-methylpyrimidin-2-yl)octahydropyrrolo[3,4-c]pyrrole], for which the Kb at human orexin 2 receptor [1] was found to be 0.003 µM.

Regarding `COc1c(C)nc(N2CC3CN(C(=O)c4c(F)cccc4-n4nccn4)CC3C2)nc1C` (centres unmarked) [Example 497, 2-{[2-Fluoro-6-(2H-1,2,3-triazol-2-yl)phenyl]carbonyl}-5-(5-methoxy-4,6-dimethylpyrimidin-2-yl)octahydropyrrolo[3,4-c]pyrrole], on human orexin 2 receptor [2], the Ki was 0.007 µM.

For `Cc1cc(C)nc(N2CC3CN(C(=O)c4ncccc4-n4nccn4)CC3C2)n1` (centres unmarked) [Example 332, [5-(4,6-Dimethyl-pyrimidin-2-yl)-hexahydro-pyrrolo[3,4-c]pyrrol-2-yl]-(3-[1,2,3]triazol-2-yl-pyridin-2-yl)-methanone], at human orexin 2 receptor [1], the Kb turned out to be 0.063 µM.

As to `Cc1cnc(N2CC3CN(C(=O)c4c(F)cccc4-n4nccn4)CC3C2)nc1C` (centres unmarked) [Example 295, 2-(4,5-Dimethylpyrimidin-2-yl)-5-{[2-fluoro-6-(2H-1,2,3-triazol-2-yl)phenyl]carbonyl}octahydropyrrolo[3,4-c]pyrrole], on human orexin 2 receptor [1], the Kb amounted to 0.01 µM.

On to `[2H]c1c(C([2H])([2H])[2H])nc(N2CC3CN(C(=O)c4c(F)cccc4-n4nccn4)CC3C2)nc1C([2H])([2H])[2H]` (centres unmarked) [Example 382, 2-{4,6-Bis[(^2H3)methyl](^2H)pyrimidin-2-yl}-5-{[2-fluoro-6-(2H-1,2,3-triazol-2-yl)phenyl]carbonyl}octahydropyrrolo[3,4-c]pyrrole], for which, on human orexin 2 receptor [1], the Kb worked out at 0.003 µM.

Regarding `[2H]c1c(C([2H])([2H])[2H])nc(N2CC3CN(C(=O)c4cccc(F)c4-c4nc(C)no4)CC3C2)nc1C([2H])([2H])[2H]` (centres unmarked) [Example 383, 2-{4,6-Bis[(^2H3)methyl](^2H)pyrimidin-2-yl}-5-{[3-fluoro-2-(3-methyl-1,2,4-oxadiazol-5-yl)phenyl]carbonyl}octahydropyrrolo[3,4-c]pyrrole], the Kb at human orexin 2 receptor [1] stood at 0.004 µM.

Take `Cc1cc(C)nc(N2CC3CN(C(=O)c4ncc(Cl)cc4-n4nccn4)CC3C2)n1` (centres unmarked) [Example 441, 2-{[5-Chloro-3-(2H-1,2,3-triazol-2-yl)pyridin-2-yl]carbonyl}-5-(4,6-dimethylpyrimidin-2-yl)octahydropyrrolo[3,4-c]pyrrole]: the Ki on human orexin 2 receptor [2] was determined as 0.103 µM.

For `Cc1cc(C)nc(N2CC3CN(C(=O)c4ccc5ccccc5c4-n4nccn4)CC3C2)n1` (centres unmarked) [Example 331, [5-(4,6-Dimethyl-pyrimidin-2-yl)-hexahydro-pyrrolo[3,4-c]pyrrol-2-yl]-(1-[1,2,3]triazol-2-yl-naphthalen-2-yl)-methanone], the Kb on human orexin 2 receptor [1] came out at 0.032 µM.

For `Cc1cc(C)nc(N2CC3CN(C(=O)c4cccc(C)c4-n4nccn4)CC3C2)n1` (centres unmarked) [Example 260, (5-(4,6-Dimethylpyrimidin-2-yl)hexahydropyrrolo[3,4-c]pyrrol-2(1H)-yl)(3-methyl-2-(2H-1,2,3-triazol-2-yl)phenyl)methanone], the Kb on human orexin 2 receptor [1] came to 0.016 µM.

Regarding `Cc1cc(C(C)(C)C)nc(N2CC3CN(C(=O)c4c(F)cccc4-n4nccn4)CC3C2)n1` (centres unmarked) [Example 301, 2-(4-tert-Butyl-6-methylpyrimidin-2-yl)-5-{[2-fluoro-6-(2H-1,2,3-triazol-2-yl)phenyl]carbonyl}octahydropyrrolo[3,4-c]pyrrole], at human orexin 2 receptor [1], the Kb turned out to be 0.02 µM.

For `Cc1cc(C)nc(N2CC3CN(C(=O)c4nc(C)ccc4-n4nccn4)CC3C2)n1` (centres unmarked) [Example 438, 2-(4,6-Dimethylpyrimidin-2-yl)-5-{[6-methyl-3-(2H-1,2,3-triazol-2-yl)pyridin-2-yl]carbonyl}octahydropyrrolo[3,4-c]pyrrole], at human orexin 2 receptor [2], the Ki stood at 0.558 µM.

Turning to `Cc1cc(CO)nc(N2CC3CN(C(=O)c4c(F)cccc4-n4nccn4)CC3C2)n1` (centres unmarked) [Example 433, {2-[5-{[2-Fluoro-6-(2H-1,2,3-triazol-2-yl)phenyl]carbonyl}hexahydropyrrolo[3,4-c]pyrrol-2(1H)-yl]-6-methylpyrimidin-4-yl}methanol], the Kb on human orexin 2 receptor [1] is 0.008 µM. The Ki at human orexin 2 receptor [2] was found to be 0.03 µM.

As to `Cc1nc(N2CC3CN(C(=O)c4c(F)cccc4-n4nccn4)CC3C2)ncc1Cl` (centres unmarked) [Example 316, 2-(5-Chloro-4-methylpyrimidin-2-yl)-5-{[2-fluoro-6-(2H-1,2,3-triazol-2-yl)phenyl]carbonyl}octahydropyrrolo[3,4-c]pyrrole], the Kb at human orexin 2 receptor [1] is 0.008 µM.

Consider `Cc1cc(C)nc(N2CC3CN(C(=O)c4c(C)cccc4-n4nccn4)CC3C2)n1` (centres unmarked) [Example 259, (5-(4,6-Dimethylpyrimidin-2-yl)hexahydropyrrolo[3,4-c]pyrrol-2(1H)-yl)(2-methyl-6-(2H-1,2,3-triazol-2-yl)phenyl)methanone], for which the Kb at human orexin 2 receptor [1] was found to be 0.003 µM.

As for `COc1cc(OC)nc(N2CC3CN(C(=O)c4c(F)cccc4-n4nccn4)CC3C2)n1` (centres unmarked) [Example 258, (5-(4,6-Dimethoxypyrimidin-2-yl)hexahydropyrrolo[3,4-c]pyrrol-2(1H)-yl)(2-fluoro-6-(2H-1,2,3-triazol-2-yl)phenyl)methanone], the Kb on human orexin 2 receptor [1] was found to be 0.025 µM.

`Cc1cc(C2CC2)nc(N2CC3CN(C(=O)c4c(F)cccc4-n4nccn4)CC3C2)n1` (centres unmarked) [Example 302, 2-(4-Cyclopropyl-6-methylpyrimidin-2-yl)-5-{[2-fluoro-6-(2H-1,2,3-triazol-2-yl)phenyl]carbonyl}octahydropyrrolo[3,4-c]pyrrole]: the Kb at human orexin 2 receptor [1] turned out to be 0.008 µM.

As for `Cc1cc(C)nc(N2CC3CN(C(=O)c4cccc(F)c4-c4nc(C)no4)CC3C2)n1` (centres unmarked) [Example 314, 2-(4,6-Dimethylpyrimidin-2-yl)-5-{[3-fluoro-2-(3-methyl-1,2,4-oxadiazol-5-yl)phenyl]carbonyl}octahydropyrrolo[3,4-c]pyrrole], the Kb at human orexin 2 receptor [1] was 0.004 µM.

On to `Cc1nc(N2CC3CN(C(=O)c4c(F)cccc4-n4nccn4)CC3C2)ncc1F` (centres unmarked) [Example 293, 2-(5-Fluoro-4-methylpyrimidin-2-yl)-5-{[2-fluoro-6-(2H-1,2,3-triazol-2-yl)phenyl]carbonyl}octahydropyrrolo[3,4-c]pyrrole], for which, on human orexin 2 receptor [1], the Kb came out at 0.079 µM.

For `Cc1nc(N2CC3CN(C(=O)c4c(F)cccc4-n4nccn4)CC3C2)nc(C)c1O` (centres unmarked) [Example 498, 2-[5-{[2-Fluoro-6-(2H-1,2,3-triazol-2-yl)phenyl]carbonyl}hexahydropyrrolo[3,4-c]pyrrol-2(1H)-yl]-4,6-dimethylpyrimidin-5-ol], the Ki on human orexin 2 receptor [2] was 0.017 µM.

Regarding `Cc1nc(N2CC3CN(C(=O)c4c(F)cccc4-n4nccn4)CC3C2)nc(C)c1C` (centres unmarked) [Example 294, 2-{[2-Fluoro-6-(2H-1,2,3-triazol-2-yl)phenyl]carbonyl}-5-(4,5,6-trimethylpyrimidin-2-yl)octahydropyrrolo[3,4-c]pyrrole], the Kb on human orexin 2 receptor [1] is 0.003 µM.

With `Cc1cc(C)nc(N2CC3CN(C(=O)c4ccc(F)cc4-n4nccn4)CC3C2)n1` (centres unmarked) [Example 118, 2-(4,6-Dimethylpyrimidin-2-yl)-5-{[4-fluoro-2-(2H-1,2,3-triazol-2-yl)phenyl]carbonyl}octahydropyrrolo[3,4-c]pyrrole], the Kb at human orexin 2 receptor [1] was found to be 0.005 µM.

As for `Cc1cc(C)nc(N2CC3CN(C(=O)c4ccc(O)cc4-n4nccn4)CC3C2)n1` (centres unmarked) [Example 462, 4-{[5-(4,6-Dimethylpyrimidin-2-yl)hexahydropyrrolo[3,4-c]pyrrol-2(1H)-yl]carbonyl}-3-(2H-1,2,3-triazol-2-yl)phenol], the inhibition constant (Ki) at human orexin 2 receptor [2] amounted to 0.018 µM.

Consider `Cc1cc(C)nc(N2CC3CN(C(=O)c4c(F)cccc4-n4nccn4)CC3C2)n1` (centres unmarked) [Example 107, [5-(4,6-Dimethyl-pyrimidin-2-yl)-hexahydro-pyrrolo[3,4-c]pyrrol-2-yl]-(2-fluoro-6-[1,2,3]triazol-2-yl-phenyl)-methanone], for which the Kb on human orexin 2 receptor [1] stood at 0.002 µM.

In the case of `O=C(c1c(F)cccc1-n1nccn1)N1CC2CN(c3nc(C(F)(F)F)cc(C(F)(F)F)n3)CC2C1` (centres unmarked) [Example 280, 2-[4,6-Bis(trifluoromethyl)pyrimidin-2-yl]-5-{[2-fluoro-6-(2H-1,2,3-triazol-2-yl)phenyl]carbonyl}octahydropyrrolo[3,4-c]pyrrole], the Kb on human orexin 2 receptor [1] was 0.063 µM.

As for `Cc1cc(C)nc(N2CC3CN(C(=O)c4cc(I)ccc4-n4nccn4)CC3C2)n1` (centres unmarked) [Example 105, 2-(4,6-Dimethylpyrimidin-2-yl)-5-{[5-iodo-2-(2H-1,2,3-triazol-2-yl)phenyl]carbonyl}octahydropyrrolo[3,4-c]pyrrole], the Kb on human orexin 2 receptor [1] was found to be 0.02 µM.
